Assay results published in patent US8524710B2 (priority 2010, dated 2013).

The chains behind the UniProt entries cited, without tags or fusion partners. Residues count along the entry.
UniProt P25774, 115-331: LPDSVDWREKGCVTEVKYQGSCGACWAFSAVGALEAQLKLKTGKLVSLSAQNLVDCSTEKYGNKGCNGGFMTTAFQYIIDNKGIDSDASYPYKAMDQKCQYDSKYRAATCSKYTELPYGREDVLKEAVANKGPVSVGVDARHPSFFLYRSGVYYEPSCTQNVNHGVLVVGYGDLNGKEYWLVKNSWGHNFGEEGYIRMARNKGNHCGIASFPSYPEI

Molecular target: human Cat S (Homo sapiens (Human), UniProt P25774)
Assay: biochemical

## Cc1cc(N2CC[C@H](S(=O)(=O)c3ccccc3C(F)(F)F)C2)nc(C#N)n1 [Example 16, 4-Methyl-6-[(S)-3-(2-trifluoromethyl-benzenesulfonyl)-pyrrolidin-1-yl]-pyrimidine-2-carbonitrile]
  IC50: 245 pM
